One protein from patent publication US20030036631 can be followed below.

One series addresses T1, GST-L3cyto-Y667F.
T1 chain: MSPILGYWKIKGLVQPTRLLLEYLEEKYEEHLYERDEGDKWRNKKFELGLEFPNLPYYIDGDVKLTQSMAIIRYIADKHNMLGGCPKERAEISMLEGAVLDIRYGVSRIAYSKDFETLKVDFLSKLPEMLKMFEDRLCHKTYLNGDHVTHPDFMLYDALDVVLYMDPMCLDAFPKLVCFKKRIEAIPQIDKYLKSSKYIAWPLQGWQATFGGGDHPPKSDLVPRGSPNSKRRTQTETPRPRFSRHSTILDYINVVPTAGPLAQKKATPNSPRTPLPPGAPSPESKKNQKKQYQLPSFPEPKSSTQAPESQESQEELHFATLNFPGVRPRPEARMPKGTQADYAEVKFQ

Another series deals with T2, L3cyto-Y691F.
T2 chain: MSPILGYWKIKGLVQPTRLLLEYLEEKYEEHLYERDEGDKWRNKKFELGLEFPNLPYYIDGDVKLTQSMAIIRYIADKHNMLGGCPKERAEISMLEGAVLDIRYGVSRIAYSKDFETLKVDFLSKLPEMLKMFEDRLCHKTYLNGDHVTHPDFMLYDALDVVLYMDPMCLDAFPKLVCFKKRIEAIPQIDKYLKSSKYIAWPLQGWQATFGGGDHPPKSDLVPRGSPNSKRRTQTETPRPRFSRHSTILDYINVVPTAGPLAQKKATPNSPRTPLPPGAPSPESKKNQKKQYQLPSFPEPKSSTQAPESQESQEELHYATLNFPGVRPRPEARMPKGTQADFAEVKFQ

B1: lck kinase (protein)
chain: GCGCSSHPEDDWMENIDVCENCHYPIVPLDGKGTLLIRNGSEVRDPLVTYEGSNPPASPLQDNLVIALHSYEPSHDGDLGFEKGEQLRILEQSGEWWKAQSLTTGQEGFIPFNFVAKANSLEPEPWFFKNLSRKDAERQLLAPGNTHGSFLIRESESTAGSFSLSVRDFDQNQGEVVKHYKIRNLDNGGFYISPRITFPGLHELVRHYTNASDGLCTRLSRPCQTQKPQKPWWEDEWEVPRETLKLVERLGAGQFGEVWMGYYNGHTKVAVKSLKQGSMSPDAFLAEANLMKQLQHQRLVRLYAVVTQEPIYIITEYMENGSLVDFLKTPSGIKLTINKLLDMAAQIAEGMAFIEERNYIHRDLRAANILVSDTLSCKIADFGLARLIEDNEYTAREGAKFPIKWTAPEAINYGTFTIKSDVWSFGILLTEIVTHGRIPYPGMTNPEVIQNLERGYRMVRPDNCPEELYQLMRLCWKERPEDRPTFDYLRSVLEDFFTATEGQYQPQP
Regarding B1, the “Decrease in Wild type Phosphorylation” value with GST-L3cyto-Y667F turned out to be 50%; in the series with L3cyto-Y691F, 30%.
